These are literature values, as cited in patent publication US20260356984A1, “DNA-AFFIBODY-DRUG NANOSTRUCTURES FOR INHIBITING TRIPLE NEGATIVE BREAST CANCER GROWTH AND METASTASIS” (ARIZONA BOARD OF REGENTS ON BEHALF OF ARIZONA STATE …, priority 2022, published 2026).

The series has as its system TNBC. As to conditions: employed as a single agent; cited from earlier work.

For “cetuximab: Anti-HER1 monoclonal antibody”, the “benefit to TNBC patients” value is “neither antibody confers significant benefit to TNBC patients”.
